This is a selection; strong and weak results do not stand in their true shares. Calls of active or inactive are those of the source.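 How the source made its calls: active means inhibition above about 50% at 20 µM (limit read from the data); inactive means the rest.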

By UniProt entry, the sequences of proteins in these tests, tags left out. Where a name states a change or a piece, a line headed by the entry shows the natural chain unless it says otherwise.
UniProt Q9GZU7: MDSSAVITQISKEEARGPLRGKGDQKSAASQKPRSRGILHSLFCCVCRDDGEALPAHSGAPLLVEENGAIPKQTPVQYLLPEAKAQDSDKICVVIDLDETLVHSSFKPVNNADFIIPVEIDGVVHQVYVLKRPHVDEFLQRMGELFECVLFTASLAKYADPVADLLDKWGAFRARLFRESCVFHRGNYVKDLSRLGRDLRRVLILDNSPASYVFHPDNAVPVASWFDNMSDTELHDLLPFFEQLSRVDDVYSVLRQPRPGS

This experiment concerns the target Carboxy-terminal domain RNA polymerase II polypeptide A small phosphatase 1 (Homo sapiens) (UniProt Q9GZU7). Put plainly: Scp-1 phosphatase inhibitors, primary screen, biochemical, colorimetric, uHTS (AID 493091).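 Further: plate controls were DMSO wells with enzyme for no effect and wells lacking enzyme for full effect.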 The following applies: Recombinant Scp1, phosphopeptide, malachite green phosphate absorbance; at 20 µM; hits give high values. A digest of the protocol: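 Incubation: 45 min enzyme reaction at room temperature / System: truncated SCP-1 phosphatase (76-261aa) / Reagent: Phospho 17-mer peptide substrate / Buffer or medium: Acidic Tris acetate buffer with magnesium and detergent / Signal: absorbance at 630 nm / Doses: one concentration, 20 µM, with 1.0% DMSO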
Take `CC(NC(=O)COC(=O)C(O)(c1ccccc1)c1ccccc1)c1ccccc1` (centres undefined): the inhibition was inactive: -2.35%.

Consider `Cc1ccccc1OP(=O)(Nc1ccccn1)Oc1ccccc1C`, for which the inhibition is inactive: -8.94%.

For `O=c1c2cc([N+](=O)[O-])ccc2[nH]c2c([N+](=O)[O-])cc([N+](=O)[O-])cc12`, the inhibition is inactive: -0.75%.

Consider `CN(C)C(=O)Oc1noc2ccccc12`, for which the inhibition is inactive: -9.52%.

For the compound `c1ccc(-c2nn[nH]n2)c(-c2nn[nH]n2)c1`, the inhibition is inactive: 1.45%.

Turning to `Cc1ccc(NP(=O)(Oc2cccc(C)c2)Oc2cccc(C)c2)nc1`, the inhibition is inactive: -4.25%.

As to `CCNC(=S)/N=C(\N)N[N+](=O)[O-]`, the inhibition was inactive: -1.87%.

Consider `O=C(NC1CCS(=O)(=O)C1)NP(=S)(Oc1ccccc1)Oc1ccccc1` (centres undefined), for which the inhibition is inactive: -5.19%.

On to `O=P1(N(CCCl)CCCl)OCCC2CCCCN21` (centres undefined), for which the inhibition is inactive: -2.23%.

For `O=[As](O)(c1ccccc1)c1ccc(O)cc1`, the inhibition is inactive: 3.46%.

Turning to `O=[N+]([O-])c1ccc(O)c(/C=N/Nc2ccc([N+](=O)[O-])cc2[N+](=O)[O-])c1`, the inhibition was inactive: -0.64%.

With `O=[N+]([O-])c1ncn(CCn2cnc([N+](=O)[O-])n2)n1`, the inhibition is inactive: -9.01%.

As for `CC(=O)NC(SC(=S)N(C)C)C(Cl)(Cl)Cl` (centres undefined), the inhibition was inactive: -2.27%.

For the compound `O=C(OC1CN2CCC1CC2)c1cccc(Cl)c1` (centres undefined), the inhibition was inactive: -9.67%.

On to `C(Cc1nn[nH]n1)Cc1nn[nH]n1`, for which the inhibition was inactive: -4.57%.

For `Nc1ccc([As](=O)(O)c2ccc([N+](=O)[O-])cc2)cc1`, the inhibition is inactive: -9.01%.

For the compound `O=P(Nc1ccccn1)(c1ccc(Br)cc1)c1ccc(Br)cc1`, the inhibition is inactive: -1.31%.

Turning to `CN(C)C1(CNC(=O)c2ccc(Cl)c(S(N)(=O)=O)c2)CCCCC1`, the inhibition is inactive: -9.04%.

Take `COc1ccc(N)c([N+](=O)[O-])c1[N+](=O)[O-]`: the inhibition was inactive: 21.8%.

On to `O=P(Nc1nc2ccccc2s1)(c1ccccc1)c1ccccc1`, for which the inhibition is inactive: 0.89%.

Consider `C[C@H]1OP(=O)(Oc2ccccc2)[C@H](O)[C@H](O)[C@H]1N=[N+]=[N-]` (some centres undefined), for which the inhibition was inactive: -2.7%.

In the case of `CC(C)C(=O)NC(Sc1ccccc1)C(Cl)(Cl)Cl` (centres undefined), the inhibition was inactive: -1%.

With `O=P(Nc1nccs1)(c1ccccc1)c1ccccc1`, the inhibition was inactive: 5.56%.

`c1nnnn1CCn1cnnn1`: the inhibition was inactive: 0%.

Take `CCN(/C(=N/P(=O)(N1CCOCC1)N1CCOCC1)N1CCOCC1)c1ccc(OC)cc1`: the inhibition is inactive: -4.6%.

On to `Nc1ccc([As](=O)(O)c2ccc(N)cc2)cc1`, for which the inhibition is inactive: -20.2%.

For the compound `C[N+]1=C2C=CC=CC=C2SC12C([N+](=O)[O-])=CC([N+](=O)[O-])=C[C-]2[N+](=O)[O-]` (centres undefined), the inhibition was active: 73.2%.

As to `CC1CCN(C(=O)Oc2c(Cl)cc(Cl)c3cccnc23)CC1`, the inhibition was inactive: -0.09%.

On to `CC(C)=N/N=C(\N)N[N+](=O)[O-]`, for which the inhibition was inactive: -4.48%.

`CN(C)C(=O)OCCc1n(C)cc[n+]1C`: the inhibition was inactive: -4.15%.

For `COc1ccc(C2=NCC(CBr)S2)cc1` (centres undefined), the inhibition was inactive: -1.73%.

In the case of `Cc1ccc(NP(=O)(Oc2ccccc2)Oc2ccccc2)nc1`, the inhibition was inactive: -3.89%.

For the compound `CCc1nc2c(n1)c1c(non1O)c1c2no[n+]1[O-]`, the inhibition was inactive: -10.8%.

On to `O=[N+]([O-])c1cc([N+](=O)[O-])c(CCNc2ccccc2)c([N+](=O)[O-])c1`, for which the inhibition was inactive: -6.19%.

As for `O=[N+]([O-])c1cccc2n[nH]nc12`, the inhibition is inactive: -3.29%.

Regarding `CC(=O)N1C2C3N(C(C)=O)C1C1N(C(C)=O)C(C(N1C(C)=O)N3C(C)=O)N2C(C)=O`, the inhibition was inactive: -6%.

As to `O=[N+]([O-])c1ncn(CCn2ncnc2[N+](=O)[O-])n1`, the inhibition is inactive: -2.22%.

In the case of `CC(C)(C)C(=O)NC(Sc1ccncn1)C(Cl)(Cl)Cl` (centres undefined), the inhibition is inactive: 9.14%.

In the case of `O=C(O)CNc1ccc([As](=O)(O)O)cc1`, the inhibition is inactive: 5.21%.

Regarding `COC(=O)C1(C)COP(=O)(Nc2ccccc2)OC1` (centres undefined), the inhibition was inactive: -2.79%.

Regarding `O=[N+]([O-])c1cccc(NC2=NCC(CBr)S2)c1` (centres undefined), the inhibition was inactive: -11.4%.

On to `O=P1(N(CCCl)CCCl)OCCCS1` (centres undefined), for which the inhibition is inactive: -2.23%.

For `O=C(Nc1cc([As](=O)(O)O)ccc1O)c1ccccc1`, the inhibition is inactive: 11.7%.

In the case of `Nc1cccc2ccc([As](=O)(O)O)cc12`, the inhibition was active: 66.8%.

With `CCN(N=Nc1nonc1N)c1nonc1N`, the inhibition was inactive: 0.21%.

As to `O=P(Nc1nc2ccc(Cl)cc2s1)(c1ccccc1)c1ccccc1`, the inhibition is inactive: -6.56%.

For `CC(=O)Nc1ccc([As](=O)(O)O)cc1`, the inhibition is inactive: -7.13%.

In the case of `O=C(O)c1ccccc1[As](=O)(O)O`, the inhibition was inactive: 1.45%.

Turning to `CCCC1OP(N)(=O)OCC1CC` (centres undefined), the inhibition is inactive: -3.9%.

Consider `Cc1cc(SC(NC(=O)c2ccc(F)cc2)C(Cl)(Cl)Cl)ncn1` (centres undefined), for which the inhibition was inactive: -4.56%.

For `CCOP(=O)(Nc1ccccc1)OCC`, the inhibition is inactive: -9.54%.

On to `Cc1ccc(NP(=O)(Oc2ccccc2F)Oc2ccccc2F)nc1`, for which the inhibition is inactive: 0.11%.

In the case of `CN(C(=O)Cc1ccc(Cl)c(Cl)c1)[C@H]1CCCC[C@@H]1N1CCCC1`, the inhibition was inactive: -6.29%.

Regarding `Oc1ccccc1CNc1ccccn1`, the inhibition is inactive: -2.05%.

With `O=C(NC(Sc1ccncn1)C(Cl)(Cl)Cl)c1ccccc1` (centres undefined), the inhibition is inactive: -7.42%.

As for `Nc1cc(N)c2nonc2c1[N+](=O)[O-]`, the inhibition is inactive: 30.8%.

As to `CC(C)CC(=O)NC(Sc1ccc(Cl)cc1)C(Cl)(Cl)Cl` (centres undefined), the inhibition is inactive: -6.35%.

With `CN(C(=O)Cc1ccc(Cl)c(Cl)c1)[C@H]1CCCC[C@H]1N1CCCC1`, the inhibition was inactive: -0.69%.

Regarding `Cc1ccc(N/C(=N/P(=O)(N2CCOCC2)N2CCOCC2)N2CCOCC2)cc1`, the inhibition was inactive: -4.09%.

Turning to `NC(=O)c1cc([N+](=O)[O-])cc([N+](=O)[O-])c1N`, the inhibition was inactive: -8.1%.

Regarding `CN1CCCC(OC(=O)C(c2ccccc2)c2ccccc2)C1` (centres undefined), the inhibition was inactive: -7.59%.

With `Clc1ccc(Cl)c(NC2=NCC(CBr)S2)c1` (centres undefined), the inhibition was inactive: -5.03%.

`COc1ccccc1OP(=O)(Nc1ccc(C)cn1)Oc1ccccc1OC`: the inhibition is inactive: 1.45%.

`Cc1ccc(OP(=O)(Nc2nccs2)Oc2ccc(C)cc2)cc1`: the inhibition was inactive: -8.94%.

For the origin of these results see PubChem BioAssay AID493091 (Sanford-Burnham Center for Chemical Genomics, 2011).
